The structures appear in SMILES notation.

By UniProt entry, the sequences of proteins in these tests, tags left out.
UniProt Q8TCW9, whole entry: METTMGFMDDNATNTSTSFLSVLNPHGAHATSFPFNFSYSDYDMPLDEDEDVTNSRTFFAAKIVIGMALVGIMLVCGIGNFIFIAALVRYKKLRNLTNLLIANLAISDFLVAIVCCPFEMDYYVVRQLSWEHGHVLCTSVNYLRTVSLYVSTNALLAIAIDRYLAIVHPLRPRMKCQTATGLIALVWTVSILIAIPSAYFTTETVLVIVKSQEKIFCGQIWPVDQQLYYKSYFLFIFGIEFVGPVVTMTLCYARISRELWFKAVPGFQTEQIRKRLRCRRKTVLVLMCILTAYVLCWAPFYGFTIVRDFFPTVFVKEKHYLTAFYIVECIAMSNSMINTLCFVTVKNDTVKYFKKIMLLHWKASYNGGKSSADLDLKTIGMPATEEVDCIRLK

From US8324380B2, “Amino-heteroaryl-containing prokineticin 1 receptor antagonists” (Janssen Pharmaceutica NV, priority 2007, dated 2012) come the findings set out here.

The target in this assay is GPR73 (prokineticin 1 receptor) (Homo sapiens, UniProt Q8TCW9). The assay is described as follows: PK1 functional assay: Ca2+ mobilization on the FLIPR. Particulars: for Ca^2+ Mobilization % Inh @10 µM: 10 µM; for IC50: read-out: Ca^2+ Mobilization IC50, HEK 293 GPR73 cells. The procedure:
At a time of 24 h prior to running the assay, in cell culture media (DMEM containing high Glucose and L-glutamine, 10% FBS, 1% Pen/Streptomycin, 1% Sodium Pyruvate, 20 mM HEPES, Zeocin 200 mg/L), 100 µL of 1.3*10^6/ml HEK 293 GPR73 (prokineticin 1 receptor) expressing cells were plated in a 96 well poly-d-lysine coated plate (Costar), and incubated at 37° C. and 5% CO2. On the day in which the assay was run, the media was removed and 200 µL of 5× Calcium Plus Dye (Molecular Devices) which was previously resuspended with 200 mL of assay buffer [HBSS w/Ca^2+ and Mg^2+ w/o phenol red, 20 mM HEPES, 0.1% BSA, 10 mL probenecid (710 mg probenecid in 5 mL of 1N NaOH, to which was then added 5 mL HBSS containing 20 mM HEPES)] was added to each well of the 96-well plate. The plate was incubated at 37° C. and 5% CO2 for 30 min in dark. The plate was removed and allowed to reach RT for 15 min in the dark. The assay was then run on the FLIPR. In Brief: base line read for 1 min, compound added (25 μL) and incubated for 4 min, 15 seconds, PK1 ligand preparation added (25 μL) for a final concentration of a previously determined EC50 and fluorescence was counted for 1 min, 45 seconds. Baseline is described as the amount of relative fluorescence read when buffer alone is added to cells. Baseline was subtracted from all wells. Percent of control was calculated as follows: (Baseline subtracted well value is divided by baseline subtracted max value)*100. Percent inhibition is 100 minus the percent of control value.
The IC50 is defined as the amount of a given compound required to inhibit 50% of the maximum signal that is generated by the concentration of PK1 preparation used in our assay. IC50 values were calculated using GraphPad Prism.

As for `COc1ccc(Cn2c(NCCn3c(N)nc4ccc(C)cc43)nc(=O)n(Cc3ccc(F)cc3)c2=O)cc1` [Cpd 3, 6-[2-(2-Amino-6-methyl-benzoimidazol-1-yl)-ethylamino]-3-(4-fluoro-benzyl)-1-(4-methoxy-benzyl)-1H-[1,3,5]triazine-2,4-dione], the “Ca^2+ Mobilization % Inh @10 µM” value amounted to 93% and the IC50 was determined as 0.123 µM.
Turning to `COc1ccc(Cn2c(NCCn3c(NC(=O)C(C)(C)C)nc4ccccc43)nc(=O)n(Cc3ccc(F)cc3)c2=O)cc1`, the “Ca^2+ Mobilization % Inh @10 µM” value is reported as 93% and the IC50 was determined as 0.797 µM.
On the same counts, the results for `NC1=NCc2ccccc2N1CCNc1nc(=O)n(Cc2ccc(F)cc2)c(=O)n1Cc1ccc(OC(F)F)cc1` are 96% and 0.171 µM.
Turning to `CC(=O)Nc1nc2ccccc2n1CCNc1nc(=O)n(Cc2ccc(F)cc2)c(=O)n1Cc1ccc(OC(F)F)cc1`, the “Ca^2+ Mobilization % Inh @10 µM” value is 47% and the IC50 is 7.91 µM.
`COc1ccc(Cn2c(NCCn3ccnc3NC(=O)C(C)(C)C)nc(=O)n(Cc3ccc(F)cc3)c2=O)cc1`: the “Ca^2+ Mobilization % Inh @10 µM” value came out at 99% and the IC50 was 0.106 µM.
On the same counts, the results for `COc1ccc(Cn2c(NCCn3c(NC(=O)C(F)(F)F)nc4ccccc43)nc(=O)n(Cc3ccc(F)cc3)c2=O)cc1` are 96% and 0.419 µM.
